US20010021514A1, “Luminescent metal-ligand complexes” (priority 1999, published 2001)

Assays:
[1] = system: goat-anti-HSA (IgG) antibodies; experiment: Steady-state luminescence polarization titration of labeled HSA with anti-HSA antibody (Analyst platform); assay type: binding
Description: Aspects of the invention include the use of selected long-lifetime metal-ligand complexes in luminescence polarization assays. Here, as elsewhere in the application, polarization assays encompass any assays involving detection of polarized light, including steady-steady and time-resolved assays, and computation of polarization and anisotropy functions, among others. […] Here, the invention was used without limitation to monitor interactions between human serum albumin (HSA) and goat-anti-HSA (IgG) antibodies. The HSA was labeled with a ruthenium-ligand complex polarization probe, Sunnyvale Red™ (SVR™), as described elsewhere in this application. SVR is a preferred polarization probe because it combines long-wavelength absorption and emission and a 200-nm Stokes' shift with a high intrinsic polarity and a long luminescence lifetime (τ=360 ns). The excitation maximum of this dye is 487 nm, so that SVR is ideally suited for excitation with an argon ion laser. The intrinsic polarization P0 is 0.36 for free SVR, and 0.38 for HSA-labeled SVR (corresponding to fundamental anisotropies of 0.27 and 0.29, respectively). These values were determined by measuring the excitation polarization spectra in vitrified solution (glycerol: water=6:4; −55° C.).
Here, changes in the steady-state polarization of SVR^−IHSA in the presence of various amounts of polyclonal antibody were measured using an Analyst™ light detection platform (LJL BioSystems, Inc.). Specifically, 30 nM of SVR-HSA were premixed with increasing amounts of anti-HSA to yield molar ratios of antigen: antibody of 1:0, 1:0.25, 1:0.5, 1:0.75, 1:1, 1:2, and 1:3. For background correction, an analogous set of samples was prepared using unlabeled HSA. […] Polarizations were measured using the Analyst™ light detection platform. The polarization in mP was calculated for each sample using the formula: [formula]
(§1) Here, G is a “G factor” that corrects for various instrument artifacts. The G factor is calculated from a known polarization of a standard fluorophore (e.g., fluorescein).

[2] = system: nonspecific antibody (IgG); experiment: Steady-state luminescence polarization titration of labeled HSA with nonspecific antibody (control); assay type: binding, human; conditions: control sample using nonspecific antibody
Method: Here, changes in the steady-state polarization of SVR^−IHSA in the presence of various amounts of polyclonal antibody were measured using an Analyst™ light detection platform (LJL BioSystems, Inc.). Specifically, 30 nM of SVR-HSA were premixed with increasing amounts of anti-HSA to yield molar ratios of antigen: antibody of 1:0, 1:0.25, 1:0.5, 1:0.75, 1:1, 1:2, and 1:3. For background correction, an analogous set of samples was prepared using unlabeled HSA. For a nonspecific control, an analogous set of samples was prepared using SVR-HSA and nonspecific anti-HSA antibodies. The various mixtures were incubated for 30 minutes at room temperature. After incubation, the mixtures were transferred in triplicates to a 96-well microplate (Coming Costar), along with PBS (10 mM) and a 10 nM fluorescein reference. Polarizations were measured using the Analyst™ light detection platform. The polarization in mP was calculated for each sample using the formula: [formula]
as §1
HSA and nonspecific human IgG were obtained from Sigma Chemical Company. Polyclonal IgG specific for HSA (goat anti-HSA) was obtained from O.E.M. Concepts. All other starting reagents were obtained from Aldrich Chemical Company. […]

[3] = Intrinsic polarization from excitation polarization spectra in vitrified solution; assay type: physicochemical; conditions: excitation polarization spectra in vitrified solution (glycerol: water=6:4; −55° C.)
Description: Aspects of the invention include the use of selected long-lifetime metal-ligand complexes in luminescence polarization assays. Here, as elsewhere in the application, polarization assays encompass any assays involving detection of polarized light, including steady-steady and time-resolved assays, and computation of polarization and anisotropy functions, among others. […] Here, the invention was used without limitation to monitor interactions between human serum albumin (HSA) and goat-anti-HSA (IgG) antibodies. The HSA was labeled with a ruthenium-ligand complex polarization probe, Sunnyvale Red™ (SVR™), as described elsewhere in this application. […] These values were determined by measuring the excitation polarization spectra in vitrified solution (glycerol: water=6:4; −55° C.).

SVR-labeled HSA: human serum albumin labeled with the ruthenium-ligand complex polarization probe Sunnyvale Red
steady-state polarization of the saturated immune complex ([1]; 30 nM SVR-HSA with anti-HSA, antigen: antibody up to 1:3): about 165 mP | steady-state polarization in the absence of antibody ([1]; 30 nM SVR-HSA, 30 minutes at room temperature): about 50 mP | increase of polarization on titration with specific antibody ([1]; 30 nM SVR-HSA, anti-HSA titration): more than 100 microplate | change of polarization with nonspecific antibody [2]: does not increase significantly | intrinsic polarization P0 [3]: 0.38
